# Data from patent US4283422A (priority 1979, dated 1981).
# Counter-ions that a name gives are not always drawn.
# Tested on: MDCK cells
smiles,measurement,value
NC12CC3CC(CC(C3)C1)C2 [Amantadine hydrochloride],relative toxicity,twice as toxic as 3-dimethylamino-4-homoisotwistane hydrochloride
